# Test results taken from article doi:10.1101/2025.09.24.678334.
# Molecular target: monomeric actin (ATP•G-actin) from chicken skeletal muscle (chicken) (UniProt P68139)
# Assay: SPR; actin (20 nM, about 1000 RU) coupled by EDC/NHS to a CM5 chip; concentration series of analyte; Biacore 8k; 1X HBS-EP+ pH 7.6; Hill equilibrium fit and two-state kinetic fit
substance,measurement,value
RanGTP (RanQ69L loaded with GTP) (from UniProt P62826 1-216) (natural protein),Kd,300 nM
